Only a part is listed here, and it is no random draw. Inconclusive results are not listed. Activity calls are given as the source filed them. Calls come from the whole dose curve; as a rule, active = well fitted inhibition curve with a large enough effect; inconclusive = small, poorly fitted or top-dose-only effect, or another doubt; inactive = no such curve, though single readings can be large or run the other way.
Molecular target: Glutaminase kidney isoform, mitochondrial (Homo sapiens) (UniProt O94925)
Assay: qHTS for Inhibitors of Glutaminase (GLS)
Settings: GLS enzymatic activity, qHTS titration; at 45.5 µM (top of the series) unless noted
% is set by controls: 0 for no effect and ±100 for the full control effect.

Sequences of proteins named here, by UniProt entry; tags and fusion partners are left off.
UniProt O94925, whole entry: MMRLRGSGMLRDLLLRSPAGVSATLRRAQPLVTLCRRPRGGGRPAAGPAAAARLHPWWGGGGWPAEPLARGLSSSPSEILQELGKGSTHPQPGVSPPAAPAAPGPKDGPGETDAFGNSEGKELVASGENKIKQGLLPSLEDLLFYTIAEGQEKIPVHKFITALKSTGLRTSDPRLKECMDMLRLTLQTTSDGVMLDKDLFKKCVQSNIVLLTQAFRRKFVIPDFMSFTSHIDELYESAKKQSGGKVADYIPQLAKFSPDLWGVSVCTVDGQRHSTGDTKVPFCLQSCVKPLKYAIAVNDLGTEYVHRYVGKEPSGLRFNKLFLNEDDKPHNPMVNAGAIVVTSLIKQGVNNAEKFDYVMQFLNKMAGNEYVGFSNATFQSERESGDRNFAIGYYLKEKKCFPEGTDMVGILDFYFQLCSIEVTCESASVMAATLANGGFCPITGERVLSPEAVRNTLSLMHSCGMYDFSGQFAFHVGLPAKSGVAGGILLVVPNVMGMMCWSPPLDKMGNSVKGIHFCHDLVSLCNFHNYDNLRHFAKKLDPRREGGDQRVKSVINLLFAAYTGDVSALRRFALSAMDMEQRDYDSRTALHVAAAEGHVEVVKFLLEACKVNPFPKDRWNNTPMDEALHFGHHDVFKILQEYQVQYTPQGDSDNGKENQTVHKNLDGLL

Structure (SMILES) | activity change, negative = inhibition
CCOC(=O)c1ccc(NP(C)(=O)Oc2ccc(F)cc2)cc1 (stereo unspecified) | inactive: -7.95%
CCN(CC)CCCOC(=O)C(O)(c1ccccc1)C1CCCCC1 (stereo unspecified) | inactive: 20.5%
Cc1c([N+](=O)[O-])cc([N+](=O)[O-])c(Br)c1[N+](=O)[O-] | inactive: -18.1%
CCCCCOc1ccc(NP(C)(=O)Oc2ccc(Cl)cc2Cl)cc1 (stereo unspecified) | inactive: 8.15%
CP(=O)(Nc1ccccc1)Oc1ccc(F)cc1 (stereo unspecified) | inactive: 1.52%
CC(C)c1ccc(OP(C)(=O)Nc2ccc(SC(F)(F)F)cc2)cc1 (stereo unspecified) | inactive: -1.9%
CP(=O)(Nc1ccccc1F)Oc1ccccc1 (stereo unspecified) | inactive: 4.3%
O=C(OCCN1CCN(CCOCc2ccccc2)CC1)C(O)(c1ccccc1)c1ccccc1 | inactive: 9.28%
CCOP(=O)(CC)Oc1ccc([N+](=O)[O-])cc1 (stereo unspecified) | inactive: -2.86%
CP(=O)(Nc1ccc(SC(F)(F)F)cc1)Oc1ccc(F)cc1 (stereo unspecified) | inactive: -5.46%
CCOP(C)(=S)SCC(=O)NC(C)(CC)C(=O)O (stereo unspecified) | inactive: 8.5%
CP(=O)(Nc1ccc2c(c1)OCCO2)Oc1ccccc1 (stereo unspecified) | inactive: 23.5%
O=[N+]([O-])c1cc([N+](=O)[O-])c(C(F)(F)F)c([N+](=O)[O-])c1O | inactive: 33.2%
Cc1ccccc1NP(C)(=O)Nc1ccccc1C | inactive: 3.99%
COc1ccc(OP(C)(=O)Nc2cccc(Br)c2)cc1 (stereo unspecified) | inactive: -0.803%
COc1ccc(NP(C)(=O)Oc2ccccc2OC)cc1 (stereo unspecified) | inactive: -2.69%
CN(C)CCOC(=O)C(O)(c1ccccc1)C1CCCCC1 (stereo unspecified) | inactive: 10.2%
Cc1cc(-c2cccc3ccccc23)c(C)cn1.O=[N+]([O-])c1cc([N+](=O)[O-])c(O)c([N+](=O)[O-])c1 | inactive: -9.98%
O=[N+]([O-])c1ccc(OP2(=O)COCCO2)cc1 (stereo unspecified) | inactive: 4.72%
Cc1c(C(c2ccc3c(c2)OCO3)c2c(C)n(C)n(-c3ccccc3)c2=O)c(=O)n(-c2ccccc2)n1C.O=[N+]([O-])c1cc([N+](=O)[O-])c(O)c([N+](=O)[O-])c1 | inactive: -2.45%
Nc1ccc2c(ccc3cccnc32)n1.O=[N+]([O-])c1cc([N+](=O)[O-])c(O)c([N+](=O)[O-])c1 | inactive: 4.38%
CP(=O)(OC12CC3CC(CC(C3)C1)C2)OC12CC3CC(CC(C3)C1)C2 | inactive: 0.183%
CCOC(=O)c1ccc(NP(C)(=O)Oc2ccc(Cl)cc2)cc1 (stereo unspecified) | inactive: -1.45%
C/C1=C2N=C(/C=C3N=C(/C(C)=C4\[N-][C@@](C)([C@H]5N=C1[C@@](C)(CCC(=O)NC[C@H](C)OP(=O)([O-])O[C@@H]1[C@H](O)[C@H](n6cnc7cc(C)c(C)cc76)O[C@@H]1CO)[C@@H]5CC(N)=O)[C@](C)(CC(N)=O)[C@H]4CCC(N)=O)[C@@](C)(CC(N)=O)[C@@H]\3CCC(N)=O)C(C)(C)[C@@H]/2CCC(N)=O.[C-]#N.[Co+3] | inactive: 0.437% [at 20 µM]
CC(C)OP(=O)(F)OC(C)C | inactive: 4.9%
N#[O+].[C-]#N.[C-]#N.[C-]#N.[C-]#N.[C-]#N.[Fe+2].[Na+].[Na+] | inactive: 11.5%

Structure (SMILES) | activity change, negative = inhibition
CCN(CC)CC(O)COC(=O)C(O)(c1ccccc1)C1CCCCC1 (stereo unspecified) | inactive: 0.592%
COc1ccc(OP(C)(=O)Nc2ccc(Br)cc2)cc1 (stereo unspecified) | inactive: 1.79%
CP(=O)(Oc1ccccc1)N1CCOC1=O (stereo unspecified) | inactive: -1.13%
CCc1ccc(OP(C)(=O)Nc2cccnc2)cc1 (stereo unspecified) | inactive: -9.67%
COc1ccccc1OP(C)(=O)Nc1c(C)n(C)n(-c2ccccc2)c1=O (stereo unspecified) | inactive: 52.2%
O=C(OCCCN1CCCC1)C(O)(c1ccccc1)C1CCCCC1 (stereo unspecified) | inactive: 9.37%
OCCSCCO | inactive: 6.18%
CP(=O)(Nc1ccc(Cl)cc1)Oc1ccc(F)cc1 (stereo unspecified) | inactive: 3.64%
CC(C)(C)c1ccc(OP(C)(=O)O)cc1 | inactive: 1.34%
COc1ccccc1OP(C)(=O)Nc1ccccc1Br (stereo unspecified) | inactive: -10.9%
CN(C)C(=O)c1c([N+](=O)[O-])cc([N+](=O)[O-])cc1[N+](=O)[O-] | inactive: 4.08%
COc1ccccc1OP(C)(=O)Nc1ccc(Br)cc1 (stereo unspecified) | inactive: 0.841%
CN(C)CCOC(=O)C(O)(c1ccccc1)C1CCCC1 (stereo unspecified) | inactive: 5.29%
COc1ccc(OP(C)(=O)Nc2ccccn2)cc1 (stereo unspecified) | inactive: -5.09%
O=[N+]([O-])c1cc([N+](=O)[O-])c(Nc2ccccn2)c([N+](=O)[O-])c1 | inactive: 16%
Cc1c(NP(C)(=O)Oc2ccc(C(C)C)cc2)c(=O)n(-c2ccccc2)n1C (stereo unspecified) | inactive: 16.7%
CCc1ccc(OP(C)(=O)O)cc1 | inactive: 3.46%
CP(=O)(Nc1ccccn1)Oc1ccccc1 (stereo unspecified) | inactive: 0.664%
COc1ccccc1OP(C)(=O)Nc1ccc(C)cc1C (stereo unspecified) | inactive: 8.31%
Cc1cc(C)cc(OP(C)(=O)Nc2cccc(C(F)(F)F)c2)c1 (stereo unspecified) | inactive: -8.33%
COc1ccc(OP(C)(=O)Nc2ccccc2Br)cc1 (stereo unspecified) | inactive: 3.86%
COc1ccccc1OP(C)(=O)Nc1ccc(C)c(C)c1 (stereo unspecified) | inactive: 9.9%
CP(=O)(OCCOc1ccccc1)OCCOc1ccccc1 | inactive: 2.67%
CP(=O)(Nc1ccc(Cl)cc1Cl)Oc1ccccc1 (stereo unspecified) | inactive: -8.81%
CCCCCCCCCCCCCCCC1C[N+](C)(C)CCOP(C)(=O)O1 (stereo unspecified) | inactive: -0.205%

— PubChem BioAssay AID624170 (National Center for Advancing Translational Sciences (NCATS), 2012)
